Assay results: patent US20260274853A1, “BIFUNCTIONAL COMPOUNDS CONTAINING PYRIMIDINE DERIVATIVES FOR DEGRADING CYCLIN-DEPENDENT KINASE 2 VIA UBIQUITIN PROTEASOME PATHWAY” (NIKANG THERAPEUTICS, INC., priority 2022, published 2026)

Legend:
CDK2 [1] = molecular target: T1, CDK2 (Homo sapiens, UniProt P24941); test: Inhibition of CDK2: phospho-Rb (S807/811) HTRF measurement in OVCAR3 cells; settings: read-out: pRb (nM), IC50 in pRB(S807/811) assay, 24 h compound treatment
Method: Phosphorylation of RB protein at S807/811 were measured using HTRF phospho-RB cellular kits (Cat #64RBS807PEG) from Cisbio.
On Day 1, OVCAR3 (dependent on CDK2) cells were seeded into 96-well tissue-culture treated plates at 20,000 cells/well in 200 μL and incubated overnight at 37° C. in CO2 atmosphere. On Day 2, the cells were treated with test compounds at concentrations from 0.3 to 10,000 nM using HP D300 digital dispenser. Twenty-four hours after compound treatment, cell culture media was removed by flicking the plate and tapping the plate against clean paper towel. Immediately 30 μL 1× lysis buffer was supplemented from the kit and the plate was incubated at room temperature on shaker for 30 min. After homogenization by pipetting up and down, 8 μL cell lysate from 96-well cell culture plate was transferred to 384-well small volume white detection plate. 2 μL premixed detection solution was added and the plate was covered with sealer. […] Detection plates were incubated for 4 h at room temperature and read on ClarioStar (BMG Labtech) in TR-FRET mode ([…]). […] Half maximal inhibition concentration (IC50) values are calculated with a four-parameter logistic fit using GraphPad Prism (version 8; La Jolla, CA). […]

CDK2 [2] = molecular target: T1, CDK2; test: CDK2 HTRF assay: cellular endogenous CDK2 level in OVCAR3 cells; settings: read-out: DC50 (half maximal degradation concentration of CDK2), 24 hours compound treatment
Method: Effects of compounds on cellular CDK2 level can be monitored by a high-throughput HTRF assay or traditional Western Blot assay.
To determine half maximal degradation concentration (DC50) values of compounds, cellular CDK2 level was measured in 96-well format using HTRF total CDK2 cellular kit (Cat #64CDK2TPEG) from Cisbio.
On Day 1, OVCAR3 cells were seeded into 96-well tissue-culture treated plates at 20,000 cells/well in 200 μL and incubated overnight at 37° C. in CO2 atmosphere. On Day 2 cells were treated with compounds at concentration ranging from 0.3 to 10,000 nM using HP D300 digital dispenser. 24 hours after compound treatment, cell culture media was removed by flicking the plate and tapping the plate against clean paper towel. Immediately 30 μL 1× lysis buffer was supplemented from the kit and the plate was incubated at room temperature on shaker for 30 min. After homogenization by pipetting up and down, 8 μL cell lysate from 96-well cell culture plate was transferred to 384-well small volume white detection plate. […] Detection plates were incubated overnight at room temperature and read on ClarioStar (BMG Labtech) in TR-FRET mode (665 nM and 620 nM). […] Half maximal degradation concentration (DC50) values were calculated with a four-parameter logistic fit using GraphPad Prism (version 8; La Jolla, CA). […]

| IC50 (CDK2 [1]) | DC50 (CDK2 [2]) | SMILES |
| --- | --- | --- |
| < 100 nM | < 100 nM | Cn1cnc(-c2nc(NC3CCN(S(=O)(=O)c4cccc(CN5CCC(c6ccc7c(N8CCC(=O)NC8=O)nn(C)c7c6)CC5)c4)CC3)ncc2C(F)(F)F)c1 |
| 100 to 500 nM |  | O=C1CCN(c2nn(CC(F)(F)F)c3cc(N4CCN(Cc5cccc(S(=O)(=O)N6CCC(Nc7ncc(C(F)(F)F)c(-c8cnn(CC(F)(F)F)c8)n7)CC6)c5)CC4)ccc23)C(=O)N1 |
